Measured values published in BindingDB's records for 1323679.

The chains behind the UniProt entries cited, without tags or fusion partners.
UniProt P41143, whole entry, looked up: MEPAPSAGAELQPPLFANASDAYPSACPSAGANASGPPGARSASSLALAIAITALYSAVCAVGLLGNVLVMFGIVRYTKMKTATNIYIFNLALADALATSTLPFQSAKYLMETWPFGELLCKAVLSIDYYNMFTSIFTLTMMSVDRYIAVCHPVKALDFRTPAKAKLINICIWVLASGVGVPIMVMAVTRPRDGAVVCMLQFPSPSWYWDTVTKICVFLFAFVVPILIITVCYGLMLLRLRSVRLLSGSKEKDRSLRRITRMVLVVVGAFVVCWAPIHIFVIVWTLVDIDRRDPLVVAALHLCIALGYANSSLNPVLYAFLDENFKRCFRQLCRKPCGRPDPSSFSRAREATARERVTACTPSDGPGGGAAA

Molecular target: Delta-type opioid receptor (Homo sapiens, UniProt P41143)
Experiment: ChEBML_146441

SMILES	Ki [nM]
CN(C(=O)Cc1ccc(Cl)c(Cl)c1)[C@@H]1CCCC[C@H]1N1CCCC1	> 10000
C[C@@H]1Cc2ccccc2C(CN2CCCC2)N1C(=O)Cc1ccc(Cl)c(Cl)c1 (stereo not given in full)	44
C[C@@H]1CN(C(=O)Cc2ccc(Cl)c(Cl)c2)C(CN2CCCC2)c2ccccc21 (stereo not given in full)	158
CC1(C)CN(C(=O)Cc2ccc(Cl)c(Cl)c2)C(CN2CCCC2)c2ccccc21 (stereo not given)	1010
O=C(Cc1ccc(Cl)c(Cl)c1)N1CCc2c(O)cccc2C1CN1CCCC1 (stereo not given)	7.1
